This test deals with HDAC2 Human recombinant C-terminal FLAG-tag (Homo sapiens, UniProt Q92769). Briefly: Measurement of HDAC2 enzyme inhibitory activity (HTRF). The settings on record: read-out: HDAC2 IC50; recombinant HDAC2, H3K9ac peptide, 3 hours room temperature. As to the method:
Test Example 1: Measurement of HDAC2 Enzyme Inhibitory Activity
The HDAC2 enzyme inhibitory activity was measured by the method described in the following test example.
To each well of a 384-well plate (Corning, 4514), DMSO solution of the test compound was dispensed at 50 nL/well from a final concentration of 99 μM to 8 points (n=2) in the 3-fold dilution series using Echo555 (Beckman Coulter). 2.5 μl of 0.005 mg/mL recombinant enzyme HDAC2 (HDAC2 Human recombinant C-terminal FLAG-tag, BPS Bioscience, 50052) was added to each well, 2.5 μl of 0.6 μM H3K9ac peptide (Lys(Ac)9-Histone H3 (1-21)-GGK(Biotin), AnaSpec, 64361) was added, mixed, and reacted in a wet box at room temperature for 3 hours. […] After the reaction, 5 μL of 10 μM SAHA (suberoylanilide hydroxamic acid) as a reaction terminator and the 5 μL of a mixture of 2.5 ng of H3K9me0 antibody (ActiveMotif, 61399) labeled in-house with europium cryptate (Cisbio, 65EUSABA) and 125 nM streptavidin-XL665 (Cisbio, 610SAXLA) as an HTRF (time-resolved fluorescence) reagent were added to each well, mixed, and allowed to stand in a wet box at room temperature for reaction. […] After reacting for 2 hours or more, HTRF was measured using a multi-plate reader such as SpectraMax Paradigm (MOLECULAR DEVICE) or RUBYstar (BMG LABTECH). […]

The chains behind the UniProt entries cited, without tags or fusion partners.
UniProt Q92769, whole entry: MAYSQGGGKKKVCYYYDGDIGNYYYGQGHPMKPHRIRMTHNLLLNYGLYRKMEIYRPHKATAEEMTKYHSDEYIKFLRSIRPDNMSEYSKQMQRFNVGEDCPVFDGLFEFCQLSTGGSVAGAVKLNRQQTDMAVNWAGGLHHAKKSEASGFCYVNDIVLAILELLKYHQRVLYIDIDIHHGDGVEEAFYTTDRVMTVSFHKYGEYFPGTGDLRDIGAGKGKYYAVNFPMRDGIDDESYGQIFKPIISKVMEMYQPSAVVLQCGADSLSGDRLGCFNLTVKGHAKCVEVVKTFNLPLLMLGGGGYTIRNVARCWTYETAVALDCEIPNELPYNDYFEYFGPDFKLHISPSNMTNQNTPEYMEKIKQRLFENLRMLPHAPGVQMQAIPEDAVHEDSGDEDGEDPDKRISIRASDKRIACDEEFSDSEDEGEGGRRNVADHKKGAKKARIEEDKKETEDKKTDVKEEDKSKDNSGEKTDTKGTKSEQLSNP

Take `N#Cc1cnc(C(=O)Nc2cc(-c3ccc(F)nc3)ccc2N)cn1`: the IC50 was determined as 450 nM.

These data come from patent US20230119479A1, “A HISTONE DEACETYLASE INHIBITOR HAVING A NITROGEN-CONTAINING AROMATIC HETEROCYCLYL GROUP” (SHIONOGI & CO., LTD., priority 2019, published 2023).
